Source: US10654808B2, “Tyrosine kinase inhibitor and pharmaceutical composition comprising same” (GUANGDONG RAYNOVENT BIOTECH CO., LTD., priority 2015, dated 2020)

Amino acid sequences for entries named in this document (tags omitted). Residues count along the entry.
UniProt P35968, 20-1356 limits assumed: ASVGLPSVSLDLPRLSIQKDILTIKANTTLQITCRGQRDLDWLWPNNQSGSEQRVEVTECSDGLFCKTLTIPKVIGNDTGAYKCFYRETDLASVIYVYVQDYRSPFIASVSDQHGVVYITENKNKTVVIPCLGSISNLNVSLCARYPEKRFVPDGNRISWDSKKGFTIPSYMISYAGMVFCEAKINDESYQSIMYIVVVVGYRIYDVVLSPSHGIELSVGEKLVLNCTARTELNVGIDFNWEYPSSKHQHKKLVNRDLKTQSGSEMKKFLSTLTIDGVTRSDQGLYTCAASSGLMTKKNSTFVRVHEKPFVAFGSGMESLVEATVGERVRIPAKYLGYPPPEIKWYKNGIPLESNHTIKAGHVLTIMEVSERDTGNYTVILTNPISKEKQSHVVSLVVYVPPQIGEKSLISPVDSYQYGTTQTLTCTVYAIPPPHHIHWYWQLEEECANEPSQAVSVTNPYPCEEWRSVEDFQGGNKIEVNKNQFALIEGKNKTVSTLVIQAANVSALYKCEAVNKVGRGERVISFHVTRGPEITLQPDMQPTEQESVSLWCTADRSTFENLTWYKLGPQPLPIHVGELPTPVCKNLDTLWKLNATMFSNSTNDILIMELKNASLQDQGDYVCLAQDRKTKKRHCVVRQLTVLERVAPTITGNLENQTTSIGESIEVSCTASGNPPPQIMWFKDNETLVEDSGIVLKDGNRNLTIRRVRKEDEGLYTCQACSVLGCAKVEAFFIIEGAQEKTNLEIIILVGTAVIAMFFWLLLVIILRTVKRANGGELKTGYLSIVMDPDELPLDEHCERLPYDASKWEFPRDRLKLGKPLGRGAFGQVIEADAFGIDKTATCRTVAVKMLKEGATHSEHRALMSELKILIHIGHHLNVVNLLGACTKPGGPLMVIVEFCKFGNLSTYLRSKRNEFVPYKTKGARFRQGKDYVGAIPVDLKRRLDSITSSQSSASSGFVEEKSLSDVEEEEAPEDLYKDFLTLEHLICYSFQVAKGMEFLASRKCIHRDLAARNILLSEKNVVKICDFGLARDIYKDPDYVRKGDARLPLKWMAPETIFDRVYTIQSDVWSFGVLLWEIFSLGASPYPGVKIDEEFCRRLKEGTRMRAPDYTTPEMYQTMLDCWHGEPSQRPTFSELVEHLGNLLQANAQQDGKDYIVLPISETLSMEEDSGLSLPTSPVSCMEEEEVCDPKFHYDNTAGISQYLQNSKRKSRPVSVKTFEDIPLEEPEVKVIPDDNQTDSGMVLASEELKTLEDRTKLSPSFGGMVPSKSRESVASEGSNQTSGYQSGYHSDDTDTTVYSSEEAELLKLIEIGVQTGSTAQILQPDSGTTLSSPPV
UniProt P11362, 22-822 limits assumed: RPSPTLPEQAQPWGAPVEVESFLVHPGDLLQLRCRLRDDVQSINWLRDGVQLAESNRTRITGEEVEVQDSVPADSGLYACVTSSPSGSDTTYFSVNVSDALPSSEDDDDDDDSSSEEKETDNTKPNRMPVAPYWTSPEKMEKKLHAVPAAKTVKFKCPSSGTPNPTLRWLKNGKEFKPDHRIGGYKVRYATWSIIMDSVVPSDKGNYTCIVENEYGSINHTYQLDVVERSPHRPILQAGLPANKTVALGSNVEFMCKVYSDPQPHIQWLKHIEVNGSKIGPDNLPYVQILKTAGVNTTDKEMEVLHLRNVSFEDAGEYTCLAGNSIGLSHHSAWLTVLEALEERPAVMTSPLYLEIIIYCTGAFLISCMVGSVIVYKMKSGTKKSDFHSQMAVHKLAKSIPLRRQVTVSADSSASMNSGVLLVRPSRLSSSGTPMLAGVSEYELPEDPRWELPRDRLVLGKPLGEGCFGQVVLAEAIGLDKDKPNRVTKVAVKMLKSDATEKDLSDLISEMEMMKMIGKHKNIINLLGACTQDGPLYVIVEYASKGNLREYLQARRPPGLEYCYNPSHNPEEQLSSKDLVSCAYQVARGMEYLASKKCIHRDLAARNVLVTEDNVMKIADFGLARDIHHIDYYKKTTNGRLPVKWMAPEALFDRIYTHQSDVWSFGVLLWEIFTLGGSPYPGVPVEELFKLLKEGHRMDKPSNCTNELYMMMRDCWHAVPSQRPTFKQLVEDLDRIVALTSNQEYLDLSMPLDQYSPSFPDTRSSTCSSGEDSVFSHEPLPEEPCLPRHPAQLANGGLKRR
UniProt P09619, 33-1106 limits assumed: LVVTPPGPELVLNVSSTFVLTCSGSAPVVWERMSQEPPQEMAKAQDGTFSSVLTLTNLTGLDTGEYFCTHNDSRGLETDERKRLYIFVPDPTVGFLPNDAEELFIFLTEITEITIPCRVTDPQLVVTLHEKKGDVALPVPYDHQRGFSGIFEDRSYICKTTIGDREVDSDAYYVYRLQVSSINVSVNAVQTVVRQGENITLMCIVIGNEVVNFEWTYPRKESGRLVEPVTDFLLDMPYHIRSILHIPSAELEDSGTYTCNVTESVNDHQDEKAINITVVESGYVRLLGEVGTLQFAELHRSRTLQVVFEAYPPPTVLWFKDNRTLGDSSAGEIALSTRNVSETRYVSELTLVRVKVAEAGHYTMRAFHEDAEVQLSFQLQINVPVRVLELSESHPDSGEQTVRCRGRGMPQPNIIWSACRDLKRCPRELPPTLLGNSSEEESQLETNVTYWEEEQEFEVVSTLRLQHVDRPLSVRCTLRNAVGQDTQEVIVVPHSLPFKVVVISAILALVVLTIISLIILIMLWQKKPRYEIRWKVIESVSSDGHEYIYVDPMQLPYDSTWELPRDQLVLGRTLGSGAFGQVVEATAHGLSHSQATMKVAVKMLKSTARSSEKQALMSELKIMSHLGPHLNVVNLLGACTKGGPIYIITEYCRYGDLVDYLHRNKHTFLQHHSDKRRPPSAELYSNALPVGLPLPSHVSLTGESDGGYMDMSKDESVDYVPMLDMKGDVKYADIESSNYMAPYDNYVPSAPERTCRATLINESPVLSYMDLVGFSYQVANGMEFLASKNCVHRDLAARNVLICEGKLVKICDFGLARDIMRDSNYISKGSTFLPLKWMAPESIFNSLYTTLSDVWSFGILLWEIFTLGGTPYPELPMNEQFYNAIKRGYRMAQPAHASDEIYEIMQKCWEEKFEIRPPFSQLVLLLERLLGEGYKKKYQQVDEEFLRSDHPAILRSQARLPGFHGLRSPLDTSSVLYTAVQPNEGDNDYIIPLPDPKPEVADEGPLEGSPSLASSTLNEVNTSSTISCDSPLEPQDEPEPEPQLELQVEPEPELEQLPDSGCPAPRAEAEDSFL

Tests used:
[1] = molecular target: VEGFR2 (Homo sapiens, UniProt P35968); assay: Z'-LYTE in vitro enzyme activity assay, VEGFR2; conditions: read-out: IC50 detected by Z'-LYTE, VEGFR2; 100 μM ATP, 60 minutes, room temperature
Protocol: (§1) The enzyme activity was measured by Z′-LYTE™ Detection Kinase Assay. The IC50 value of the compounds was used as an index to evaluate the inhibitory effect of the compounds on VEGFR2, FGFR1 and PDGFRB.
(§2) Recombinant human VEGFR2 and FGFR1 proteases were purchased from Life technology, PDGFRB Protease was purchased from Millipore.
(§3) Z-LYTE™ Kit Tyr1 and Tyr4 were purchased from Life technology. Multi-microplate reader, Envision (PerkinElmer) read board was used.
(§4) The test compounds were diluted 3 times with a concentration gradient, the final concentration was from 10 μM to 0.17 nM with a total of 11 concentrations, and each concentration had two parallel holes; the content of DMSO in the assay was 1%.
3 nM VEGFR2 protein kinase, 2 μM Tyr1 peptide, 100 μM ATP, 50 mM HEPES (pH 7.5), 10 mM MgCl2, 1 mM EGTA, 0.01% BRIJ-35. The detector plate was Black Proxiplate 384-Plus plate (PerkinElmer), the reaction was performed at room temperature for 60 minutes, and the reaction system was 10 μl.
(§5) The reaction was stopped by adding 5 μl of DV reagent B (1:128) to the kinase reaction solution and incubated at 23° C. for 60 minutes. The Envision instrument was used to read the plate.
(§6) The data was converted to phosphorylation rate and inhibition rate and the 4 parameter curve fitting (Model 205 in XLFIT5, iDBS) was used to get IC50 data of the compounds.

[2] = molecular target: FGFR1 (Homo sapiens, UniProt P11362); assay: Z'-LYTE in vitro enzyme activity assay, FGFR1; conditions: read-out: IC50 detected by Z'-LYTE, FGFR1; 25 μM ATP, 60 minutes, room temperature
Protocol: as §1, §2, §3, §4
(§7) 1 nM FGFR1 protein kinase, 2 μM Tyr4 peptide, 25 μM ATP, 50 mM HEPES (pH 7.5), 10 mM MgCl2, 1 mM EGTA, 0.01% BRIJ-35, 2 mM MnCl2, 1 mM DTT. The detector plate was Black Proxiplate 384-Plus plate (PerkinElmer), the reaction was performed at room temperature for 60 minutes, and the reaction system was 10 μl.
as §5, §6

[3] = molecular target: PDGFRB (Homo sapiens, UniProt P09619); assay: Z'-LYTE in vitro enzyme activity assay, PDGFRB; conditions: read-out: IC50 detected by Z'-LYTE, PDGFRB; 100 μM ATP, 60 minutes, room temperature
Protocol: as §1, §2, §3, §4
as §7, with “40 nM PDGFRB” for “1 nM FGFR1”, “40 nM PDGFRB protein kinase,” for “1 nM FGFR1 protein kinase,”, “Tyr4 peptide, 100 μM ATP,” for “Tyr4 peptide, 25 μM ATP,”
as §5, §6

| IC50 [1] [nM] | IC50 [2] [nM] | IC50 [3] [nM] | Compound |
| --- | --- | --- | --- |
| 50 to 200 | 200 to 1000 | 50 to 200 | COc1cc2nccc(Oc3ccc(NC(=S)NC4CC4)c(Cl)c3)c2cc1-c1ncco1 |
| 200 to 1000 | 200 to 1000 | 200 to 1000 | COc1cc2nccc(Oc3ccc(Nc4c(N[C@@H](C)CO)c(=O)c4=O)c(Cl)c3)c2cc1C(N)=O |
| 200 to 1000 | 200 to 1000 | 200 to 1000 | COc1cc2nccc(Oc3ccc(Nc4c(N[C@H](C)CO)c(=O)c4=O)c(Cl)c3)c2cc1C(N)=O |
